## Antibody variant affinities, Ab-14 light chain, assay B

The measurements come from Li et al. 2023 (doi:10.1038/s41467-023-39022-2) through the FLAb antibody collection.

Antigen: PDVDLGDISGINAS, a 14-residue peptide of the SARS-CoV-2 spike HR2 region.

Parent: Ab-14, a human scFv built as VH, a 15-residue (Gly4Ser)3 linker, VL. Only the CDRs of the light chain vary.
VH: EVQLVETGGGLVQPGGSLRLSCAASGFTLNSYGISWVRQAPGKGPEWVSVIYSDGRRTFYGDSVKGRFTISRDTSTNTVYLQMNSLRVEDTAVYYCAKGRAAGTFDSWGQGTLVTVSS
VL: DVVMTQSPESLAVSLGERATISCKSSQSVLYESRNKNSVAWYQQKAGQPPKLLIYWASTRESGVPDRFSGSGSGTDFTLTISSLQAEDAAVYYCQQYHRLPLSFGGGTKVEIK

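Phage display of a naive human antibody library on the peptide gave the parent. The variants were designed computationally from a first round of random CDR variants and then made and measured. Group labels follow the data file (Ctrl: baseline library sampled from a position-specific scoring matrix, with some repeated check sequences; GP: Gaussian process model; GPLM: also part of the Gaussian process libraries; HC: hill climbing; Gen: genetic algorithm; Gibbs: Gibbs sampling; a sequence that several methods proposed may carry one label only). The scFvs were displayed on barcoded MATa yeast, the peptide on MATalpha yeast. Pairs that bind mate more often; barcode pairs of the diploids are counted by sequencing. Each replicate has its own calibration line, from reference interactions of the BCL2 family. Mating was done six times.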

Variants are written as CDR1, CDR2 and CDR3 of the light chain (limits as in the source). Parent: KSSQSVLYESRNKNSVA, WASTRES, QQYHRLPLS. Variants here have at most six changes. Scale: log10 of Kd in nM, estimated from mating counts; low values are strong binders. Replicates are averaged; those with no signal do not enter the mean. A pair that was not seen in that replicate is written "ND"; this usually means weak binding, but a binder can also be missed. Entries are sorted by rising average, undetected variants last.

Variant KLSQSVLYESRNKNSVA / NASQRSS / QQYHRLPLS [GP_Gen] gave 0.24, -0.34, -1.18, -1.18, -0.89, -0.59 (mean -0.66). With KLSMSELYESRNKNSVA / NASTRMS / QQYHRLPLS [GP_Gen] the result was -0.30, -0.49, -0.65, -0.84, -0.62, -0.48 (mean -0.56). Variant KFSQSVLLESRTKNNVA / NASTRES / QQYHRLPLS [GP_HC] showed -0.16, -0.45, -0.40, -0.47, -0.45, -0.19 (mean -0.35). With KLSQSHLYESRNKNSVA / EASTRES / QQYHRLPLS [GP_Gen] the result was -0.27, -0.34, -0.41, -0.56, -0.50, -0.03 (mean -0.35). For KLDQSDLYESRNKNSVA / GASTRES / QQYHRLPLS [GP_Gen], the assay gave -0.06, -0.18, -0.36, -0.41, -0.34, -0.20 (mean -0.26). Variant KSSQSVLFQDRNKNSVA / DASTRES / QQYHRLPLS [GP_HC] showed 0.06, -0.02, -0.23, -0.34, -0.11, 0.02 (mean -0.10). With KISQEVWYESRNKNSVA / EASQRES / QQYHRLPLS [GP_Gibbs] the result was 0.09, 0.04, -0.43, -0.03, -0.20, 0.00 (mean -0.09).

Variant KLSQSVLYESRNPNSVA / NASTRCS / QQYHRLPLS [GP_Gen] showed 0.05, 0.00, -0.09, -0.28, -0.14, -0.04 (mean -0.08). Variant KLSQSVLYESRNKNAVA / DASTRES / QQYHRLPLS [GP_Gen] showed 0.24, -0.16, -0.19, -0.04, -0.14, -0.19 (mean -0.08). For KLQQSWLYESRNKNSVA / NASLRES / QQYHRLPLS [GP_Gen], the assay gave 0.14, 0.13, 0.15, -0.08, -0.35, 0.01 (mean 0.00). Variant KLQQSVLYQSRNKNSVA / EASTRES / QQYHRLPLS [GP_Gen] gave 0.25, 0.03, -0.02, -0.16, -0.12, 0.06 (mean 0.01). Variant KFSPSVLYESRFKNSVA / NASTRES / QQYHRLPLS [GP_HC] showed 0.13, 0.25, 0.04, -0.08, -0.14, 0.23 (mean 0.07). With KLSMSMLYESRNKNSVA / NASTRES / QQYHRLPLS [GP_Gen] the result was 0.10, 0.00, 0.06, 0.05, 0.01, 0.26 (mean 0.08). For KSSQSVLYESENKNSVA / GASTRES / QQYHRLPLS [Ctrl], the assay gave 0.21, 0.33, -0.06, -0.02, 0.01, 0.14 (mean 0.10).

For KLSQSQLYESRMKNSVA / NASTREM / QQYHRLPLS [GP_Gen], the assay gave 0.10, 0.21, 0.26, -0.02, 0.00, 0.16 (mean 0.12). With KSSQSVPYESRNKNSVA / DASTRES / QQYHRLPLS [GP_Gen] the result was 0.24, 0.22, 0.04, 0.06, -0.05, 0.34 (mean 0.14). Variant KLCQSVLYESRNKNSVA / NASTRED / QQYHRLPLS [GP_HC] gave 0.28, 0.03, 0.04, 0.10, 0.04, 0.40 (mean 0.15). For KSSQSVLYESRNKNSVA / DASTREM / QQYHRLPLC [Ctrl], the assay gave 0.46, 0.23, 0.20, 0.27, 0.00, 0.23 (mean 0.23). For KSQQSWGYESRNKNSVA / GASTRES / QQYHRLPLS [GP_HC], the assay gave 0.57, 0.19, 0.18, 0.15, 0.22, 0.21 (mean 0.25). Variant KMSFSVLYESRNKNSVA / AASTRES / QQYHPLPLS [Ctrl] gave 0.52, 0.39, 0.48, 0.44, 0.52, 0.20 (mean 0.42). Variant KVSQSHLYESRNKNAVA / EASTRES / QQYHRLPLS [GP_Gen] showed 0.39, 0.33, 0.35, 0.38, 0.44, 0.68 (mean 0.43).

For KSSQSVLNESRNKNSVA / GASTRED / QQYHRLPLS [Ctrl], the assay gave 0.64, 0.40, 0.64, 0.45, 0.30, 0.37 (mean 0.47). With KSSWNVLYESYNKNSVA / WASTRES / QQYARLPLS [Ctrl] the result was ND, 1.04, 0.07, ND, ND, 0.34 (mean 0.48). For KMSQSVLYTSRNKNSVA / HASTRFS / QQYERLPLS [Ctrl], the assay gave 0.90, 0.61, 0.27, 0.46, 0.81, 0.62 (mean 0.61). For KSSISYLGEKRNKNSVA / EASTRES / QQYHRLPLS [GP_HC], the assay gave 0.73, 1.18, 0.36, 1.24, 1.50, 0.22 (mean 0.87). Variant KSSQSGLYESRNKNSVA / GASTRES / QQYHRLTLS [GPLM_HC] gave 0.92, 1.06, 1.04, 0.66, 0.91, 1.20 (mean 0.96). With KYMQGVLYESRNKNDVA / WASTRES / QQYHRLPLS [Ctrl] the result was 1.36, 0.72, 1.37, 0.58, 0.76, 1.29 (mean 1.01). For MSSQSVLYESENKNSVA / QASTREA / QQYHRLPLS [Ctrl], the assay gave 2.21, 0.68, 1.13, 0.84, 1.28, 1.31 (mean 1.24).

Variant KQSQSVLYEGRNKNSVA / MASTRES / QQYHRLPLS [GP_HC] showed ND, ND, ND, 1.36, 1.42, ND (mean 1.39). Variant KSSQSVLYASRNKNSVA / WGSTRES / QQYHRLPLS [Ctrl] showed 1.19, 2.77, 1.58, 1.00, 1.27, 1.69 (mean 1.58). With KSSQSVLFESRNKNSVA / WASTRAS / QQYHRLPLS [Ctrl] the result was 1.26, 2.43, 1.78, 3.54, 1.81, 1.31 (mean 2.02). Variant KSSLSALYESSNKNSVA / WASTRES / QQYHRLPLS [Ctrl] showed ND, 1.19, 3.56, 2.89, ND, 1.56 (mean 2.30). Variant VSSQSVLYEERNKNSVA / WASTRES / QQYHRLPLS [Ctrl] gave 2.32, ND, 2.82, ND, ND, 2.44 (mean 2.53). For KSSQSALPEGRNKNSVA / WASTRES / QIYHRLPLE [Ctrl], the assay gave 1.25, ND, ND, ND, 3.18, 3.31 (mean 2.58). Variant KSMQSVLYESTNKNSVA / WSSTRES / QQYHRLPLS [Ctrl] gave 2.38, ND, ND, ND, 2.39, 5.13 (mean 3.30).

Variant KVSQSVLYESRDKNSVA / NASTRES / QQMHRLPLS [GP_HC] gave ND, 2.75, 4.10, ND, ND, ND (mean 3.43). Variant KSSQSVLYESRNKNSVA / WASTRES / QQYHRYPLS [Ctrl] gave ND, ND, ND, ND, ND, ND. Variant KVSQGVLYESRNKNSVA / GASTRES / QQYHRLPLS [GP_HC] gave ND, ND, ND, ND, ND, ND. Variant KSSQSVLYESRHKNSVA / QASTRES / QQYHRLPES [Ctrl] showed ND, ND, ND, ND, ND, ND.

Picked from the list: the 4 lowest averages where every replicate gave a value.

With KLSQSVLYESRNKNSVA / NASQRSS / QQYHRLPLS [GP_Gen] the result was 0.24, -0.34, -1.18, -1.18, -0.89, -0.59 (mean -0.66).
With KLSMSELYESRNKNSVA / NASTRMS / QQYHRLPLS [GP_Gen] the result was -0.30, -0.49, -0.65, -0.84, -0.62, -0.48 (mean -0.56).
With KFSQSVLLESRTKNNVA / NASTRES / QQYHRLPLS [GP_HC] the result was -0.16, -0.45, -0.40, -0.47, -0.45, -0.19 (mean -0.35).
With KLSQSHLYESRNKNSVA / EASTRES / QQYHRLPLS [GP_Gen] the result was -0.27, -0.34, -0.41, -0.56, -0.50, -0.03 (mean -0.35).

Of ten entries with the parent sequence, four were seen in most replicates (averages 0.34 to 2.37), three in one and three in none, so single entries are noisy. A sequence measured in both rounds can read differently, since the two assays cover different ranges. The authors averaged sequences with at least three values out of six and counted those with two or fewer as poor binders. Empty control strains, which show no peptide, gave a signal in 4% of pairings with all light chain designs; the median was 2.64 and 95% of these signals were weaker than 1.59. No background was subtracted.